Results reported in ChEMBL document CHEMBL5370537, “Aporphines: A privileged scaffold in CNS drug discovery” (Eur J Med Chem, 2023).

Sequences of proteins named here, by UniProt entry; tags and fusion partners are left off. A change or cut given only in a name is not applied to a line headed by its entry.
UniProt O42275: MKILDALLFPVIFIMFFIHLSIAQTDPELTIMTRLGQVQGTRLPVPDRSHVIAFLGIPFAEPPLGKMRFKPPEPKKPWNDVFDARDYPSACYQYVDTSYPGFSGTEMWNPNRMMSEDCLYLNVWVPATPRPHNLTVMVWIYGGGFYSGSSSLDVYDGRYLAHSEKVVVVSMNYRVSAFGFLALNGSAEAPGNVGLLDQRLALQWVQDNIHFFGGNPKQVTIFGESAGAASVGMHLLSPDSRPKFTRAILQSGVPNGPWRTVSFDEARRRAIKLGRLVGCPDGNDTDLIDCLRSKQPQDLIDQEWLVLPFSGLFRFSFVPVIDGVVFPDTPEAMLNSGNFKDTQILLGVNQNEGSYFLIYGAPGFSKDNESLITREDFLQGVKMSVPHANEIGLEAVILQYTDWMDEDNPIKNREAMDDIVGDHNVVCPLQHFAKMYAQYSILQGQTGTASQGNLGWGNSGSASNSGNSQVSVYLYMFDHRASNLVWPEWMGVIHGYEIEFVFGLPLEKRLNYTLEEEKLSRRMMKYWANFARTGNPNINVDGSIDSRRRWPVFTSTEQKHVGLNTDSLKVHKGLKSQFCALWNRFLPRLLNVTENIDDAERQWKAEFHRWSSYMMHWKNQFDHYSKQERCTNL

Key:
Conditions in all cases: time 15.0 min
[1] = target: Acetylcholinesterase (Electrophorus electricus) (UniProt O42275); experiment: Potency index, ratio of (R)-Roemerine IC50 to test compound IC50 for inhibition of Electrophorus electricus AChE using ATCI as substrate pre-incubated for 10 mins followed by substrate addition measured after 5 mins by microplate reader analysis
[2] = target: Acetylcholinesterase (Electrophorus electricus) (UniProt O42275); experiment: Potency index, ratio of (S)-Dicentrine IC50 to test compound IC50 for inhibition of Electrophorus electricus AChE using ATCI as substrate pre-incubated for 10 mins followed by substrate addition measured after 5 mins by microplate reader analysis
[3] = target: Acetylcholinesterase (Electrophorus electricus) (UniProt O42275); experiment: Potency index, ratio of (R)-Stephanine IC50 to test compound IC50 for inhibition of Electrophorus electricus AChE using ATCI as substrate pre-incubated for 10 mins followed by substrate addition measured after 5 mins by microplate reader analysis

Measured: Ratio IC50

COc1cccc2c1cc1c3c(cc4c(c32)OCO4)CCN1C
4: [1] | [2] | [3]

CN1CCc2cc3c(c4c2c1cc1ccccc14)OCO3 [DEHYDROROEMERINE]
4: [1] | [2] | [3]
